Data taken from US7196063B1, “Peptides and pharmaceutical compositions comprising same” (NST NeuroSurvival Technologies Ltd., priority 1999, dated 2007).

Test system: apoptotic hepatocytes
Conditions: mouse, in vivo
Description: Massive hepatic apoptosis can be induced within 1–2 hr in mice following intravenous injection of anti-Fas antibody (Ogasawara J. et al., 1993, Nature, 364, 806–809). […] Five-weeks-old male BALB/c mice were injected intravenously with 10 μg/animal of purified hamster anti-Fas mAb (Jo2, PharMingen, San Diego, Calif.) using the model described by Ogasawara et. al. (Nature, 1993, 364, 806–809). […] Injections were performed at different time intervals between 5 min–2 hr after antibody treatment. […] All animals were killed 2 hr after administration of antibody followed by organ removal. Heart, lung and liver were collected. Liver were sectioned transversely across the mid-portion of each lobe; organs were fixed in phosphate-buffered formalin for histological and immunohisto-chemical analyses.
Formalin fixed paraffin-embedded tissues were sectioned (5 μm) for staining with Hematoxylin/Eosin or other techniques. […]
Liver sections from different lobes were used for detection of stained apoptotic cells compared to normal cells. Using light microscopy (×400), twenty fields of stained cells were evaluated. […] The stained cell's score (%) corresponds to the mean of the values for the twenty evaluated fields. […]
To quantitate the microscopic examination of the pharmacokinetics studies, the number of stained cells from 20 microscopic fields was counted.

Myristate-KVSFFCKNKEKKC-K (SEQ ID NO:1) (biotin) [NST513]
apoptotic cells in liver sections of control animals injected with the compound alone: No evidence of apoptotic cells | time of peak staining of apoptotic cells in liver after injection: 60 min
